Results taken from patent US9433608B2 (priority 2013, dated 2016).

Tested on: TIA (transient ischemic attack) symptoms

C[N+]1(C)CCC(OC(=O)C(O)(c2ccccc2)C2CCCC2)C1 (stereo not drawn)
effect on oral and pharyngeal secretions (2 mg glycopyrrolate along with midazolam 2.5 mg daily): drying up the oral and pharyngeal secretions | swallowing on the second night (5 mg midazolam pump with 2 mg glycopyrrolate): could swallow their own saliva | clinical state the next day (first night 5 mg midazolam and 2 mg glycopyrrolate along with 35% oxygen): sitting talking to relatives, mentating better but could not swallow their own saliva
